Reference: ChEMBL document CHEMBL1122042, “Chemical synthesis and molecular pharmacology of hydroxylated 1-(1-phenylcyclohexyl-piperidine derivatives” (1982)

Tests used:
[1] = target: Muscarinic acetylcholine receptor (Mus musculus) (UniProt Q920H4+Q9ERZ4+P12657+P32211+Q9ERZ3); test: Inhibition of the specific binding of [3H]QNB to Muscarinic acetylcholine receptor
[2] = target: T1, Opioid receptor (Mus musculus) (UniProt P42866+P32300+P33534); test: Hill coefficient for binding of [3H]morphine to Opioid receptors
[3] = target: T1, Opioid receptor (Mus musculus); test: Inhibition of the specific binding of [3H]morphine to Opioid receptors

Row | Structure (SMILES) | K0.5 [1] | nH [2] | K0.5 [3]
1 | O[C@H]1CC[C@](c2ccccc2)(N2CCCCC2)CC1 | > 100 µM | 1 | 17.5 µM
2 | O[C@H]1CC[C@@](c2ccccc2)(N2CCCCC2)CC1 | > 100 µM |  | 100 µM
